Values of other authors, collected in article PMC13466294, “Nucleolaron1511 and Nucleolaron1510 Facilitate Effective Intracellular Delivery of Azami Green Protein in HeLa Cells” (International Journal of Molecular Sciences, 2026).

Tested on: four cell lines
Settings: CPP fused to EGFP, across four cell lines; ref 45 (Patel et al.); cited from earlier work
Procedure: To quantify intracellular delivery, flow cytometry was performed following a stringent surface-depletion protocol. Cells were washed with an acidic glycine-NaCl solution to disrupt electrostatic interactions between surface-bound AG–CPP and the plasma membrane, then treated with trypsin, which both detaches cells from the culture plate and cleaves CPP sequences at arginine and lysine residues—amino acids abundant in all constructs tested—thereby eliminating residual surface-associated fluorescence. This protocol ensures that the measured fluorescence predominantly reflects int ...

Substance: Transportan
- Uptake efficiency relative to TAT: approximately 2.4 fold
